# Values of other authors in patent US8299062B2, “Pharmaceutical compositions and methods for preventing, treating, or reversing neuronal dysfunction” (dated 2012).
# Tests used:
# NMDA receptor = NMDA receptor (Rattus norvegicus, UniProt P35439); conditions: listed as (−)-huperzine A
# AChE = conditions: given less than 3 hours prior to soman exposure
# [1] = tablet, oral
# [2] = oral
# [3] = preclinical studies
compound,measurement,setting,value
"5,9-Methanocycloocta(b)pyridin-2(1H)-one, 5-amino-11-ethylidene-5,6,9,10-tetrahydro-7-methyl-, (5R,9R,11E)-","NMDA receptor / calcium ion channel block, potency of the enantiomers compared",NMDA receptor,equal potency
CN(C)C(=O)Oc1ccc[n+](C)c1,AChE inhibition after soman exposure,AChE,increased levels of AChE inhibition
C/C=C1\[C@H]2C=C(C)C[C@]1(N)c1ccc(=O)[nH]c1C2,elimination half-life,[1],approximately 288.5 minutes
same,time to peak plasma concentrations,[1],approximately 79.6 minutes
same,patients showing side effects,1200 μg/day,approximately 50%
same,tolerability,daily oral 300-400 μg,well tolerated with a low incidence of side effects
same,time to peak plasma concentrations,[2],10 to 30 min
CN1[C@@H]2CC[C@H]1C[C@@H](OC(=O)C(CO)c1ccccc1)C2 (some centres unmarked),effect on acute toxicity associated with huperzine A,[3],reduced acute toxicity

# Where two headings read alike, the source gives them in different places.
